US5569742A (The Salk Institute for Biological Studies, priority 1994, dated 1996)

Amino acid sequences for entries named in this document (tags omitted).
UniProt P49146, whole entry: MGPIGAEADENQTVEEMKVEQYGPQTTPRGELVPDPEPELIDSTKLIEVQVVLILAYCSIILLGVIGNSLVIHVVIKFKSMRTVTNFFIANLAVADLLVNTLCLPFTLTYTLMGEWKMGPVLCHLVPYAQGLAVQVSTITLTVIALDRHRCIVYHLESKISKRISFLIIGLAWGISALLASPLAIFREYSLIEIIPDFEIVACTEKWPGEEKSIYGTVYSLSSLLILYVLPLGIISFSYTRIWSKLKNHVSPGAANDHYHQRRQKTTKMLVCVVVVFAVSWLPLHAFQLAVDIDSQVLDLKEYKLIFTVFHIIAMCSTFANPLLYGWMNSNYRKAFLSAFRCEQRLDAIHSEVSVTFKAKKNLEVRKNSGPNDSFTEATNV

Molecular target: T1, NPY receptors on SK-N-BE2 cells (Homo sapiens, UniProt P49146)
T1 construct: endogenous in cells; host or cells: SK-N-BE2 human neuroblastoma cells
Assay: Saturation binding experiment with [125I]PYY as radioligand on SK-N-BE2 cells
Conditions: saturation binding data
Procedure: Saturation binding experiments are performed for both the SK-N-MC and SK-N-BE2 cell lines using [^125 I]PYY as the radioligand. The Scatchard plot of the [^125 I]PYY saturation binding data obtained for the SK-N-BE2 cells is nearly linear.

slope of the Hill plot: 1.03
Substance: [^125 I]PYY: radioligand, iodinated peptide YY from NEN
